The data set can be described thus: Solubility of PDE5 inhibitors in formulation carriers and co-solvents.

With sildenafil mesylate, for the setting “20% w/w ethanol, compared with 100 mg/ml in water”, the “solubility with 20% w/w ethanol” value was “unaltered”. In addition, the “solubility with co-solvent Transcutol HP” value (Transcutol HP (diethylene glycol monoethyl ether Ph Eur) 20% w/w) stood at 60 mg/mL. For the same substance, the “solubility in aqueous formulations” value (aqueous formulations) is “up to 100 mg/ml”. The “solubility with co-solvent glycerol” value (glycerol 20% w/w) turned out to be 60 mg/mL. The “effect of caffeine and sodium dihydrogen phosphate on solubility” value (inclusion of caffeine and sodium dihydrogen phosphate) is “did not appear to significantly improve the solubility”. Also, under “propylene glycol 20% w/w”, the “solubility with co-solvent propylene glycol” value came out at 80 mg/mL. Further, where the note is “water”, the solubility in water result is recorded as “up to 100 mg/ml”.

The values are drawn from US20150005307A1, “Drug Delivery Technology” (LondonPharma Ltd., priority 2011, published 2015).
